One compound from US8575203B2, “Chemical compounds” (Boehringer Ingelheim International GmbH, priority 2010, dated 2013) can be followed below.

Amino acid sequences for entries named in this document (tags omitted). Residues count along the entry.
UniProt O15530, 52-556: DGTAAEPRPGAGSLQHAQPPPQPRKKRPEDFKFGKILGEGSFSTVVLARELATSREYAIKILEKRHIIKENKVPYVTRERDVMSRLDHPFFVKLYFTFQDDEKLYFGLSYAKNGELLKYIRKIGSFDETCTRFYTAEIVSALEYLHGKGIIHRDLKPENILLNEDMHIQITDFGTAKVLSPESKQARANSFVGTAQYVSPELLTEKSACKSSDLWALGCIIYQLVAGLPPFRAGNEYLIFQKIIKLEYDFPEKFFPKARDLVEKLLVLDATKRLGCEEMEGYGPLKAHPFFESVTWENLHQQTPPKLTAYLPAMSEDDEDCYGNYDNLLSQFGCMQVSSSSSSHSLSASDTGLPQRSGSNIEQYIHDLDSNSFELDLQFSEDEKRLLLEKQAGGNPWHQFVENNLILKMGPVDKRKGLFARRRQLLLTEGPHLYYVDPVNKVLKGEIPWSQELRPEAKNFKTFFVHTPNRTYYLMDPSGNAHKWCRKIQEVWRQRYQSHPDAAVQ

The target of this assay is Recombinant human PDK1 enzyme (aa 52-556) (Homo sapiens (Human), UniProt O15530). Description: PDK1 kinase assay. The class given is biochemical. On the procedure: The activity of the compounds according to the invention on the kinase PDK1 which inhibits the signal transduction pathway is determined in an in vitro kinase assay with recombinantly prepared protein:
Recombinant human PDK1 enzyme (aa 52-556) linked at its N-terminal end to His6 is isolated from baculovirus-infected insect cells. Purified enzyme may be obtained for example from the University of Dundee, Scotland. […]
The reaction is started by adding the ATP solution and the mixture is incubated for 90 min at RT. […] Then the plate is stuck down with sealing tape, 25 μL/well of scintillation solution (Microscint 0; Perkin Elmer; No. 6013611) are added and the amount of P33 precipitated is measured using the Wallac Betacounter. The measured data are evaluated using Graphpad Prism software.

Take `O=C(NCC#Cc1ccc2ncc(N[C@H]3CC[C@H](N4CCN(CC5CC5)CC4)CC3)nc2c1)c1cccn([C@H](CO)c2ccccc2)c1=O` [I-65]: the 50% inhibitory concentration (IC50) turned out to be 7 nM.

For orientation: IC50 means the concentration that gives 50% inhibition.
